## scFv variants of Ab-14 (light chain) against a SARS-CoV-2 spike peptide

Source: Engelhart et al. 2022 (doi:10.1038/s41597-022-01779-4), MIT Lincoln Laboratory and A-Alpha Bio; data file from the FLAb repository.

The target is the same throughout: PDVDLGDISGINAS, from the HR2 region of SARS-CoV-2 spike.

Each scFv is VH, a (GGGGS)3 linker, VL, as in the parent Ab-14, and differs from it in the CDRs of the light chain only.
VH: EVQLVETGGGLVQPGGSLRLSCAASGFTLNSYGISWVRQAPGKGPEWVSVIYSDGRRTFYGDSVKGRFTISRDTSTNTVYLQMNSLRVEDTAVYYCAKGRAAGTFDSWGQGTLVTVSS
VL: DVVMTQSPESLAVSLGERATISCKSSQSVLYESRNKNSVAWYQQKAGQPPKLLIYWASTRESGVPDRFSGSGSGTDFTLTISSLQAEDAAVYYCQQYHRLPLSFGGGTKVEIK

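Library AAYL50 holds single substitutions and randomly drawn double and triple substitutions in the CDRs. AlphaSeq pools MATa yeast showing the antibodies with MATalpha yeast showing the peptide. Mating (16 h, 30 °C) was followed by selection of diploids and sequencing of their barcodes. Read counts were normalised to the haploid input and turned into Kd by a linear fit to BCL2-family pairs of known affinity, for each replicate. Each pool was mated in three replicate cultures.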

Each variant is given by its three light chain CDRs, as the data file delimits them; those of the parent are KSSQSVLYESRNKNSVA, WASTRES, QQYHRLPLS.
Affinities are written as log10 Kd with Kd in nM; a lower number is a better binder.
Replicates are averaged; those with no signal do not enter the mean.
"not detected" marks a missing value. The strain was present, yet no cells mated with the target were sequenced in any replicate, which points to weak or no binding.

| CDR-L1 | CDR-L2 | CDR-L3 | log10 Kd (nM), mean | detected |
|---|---|---|---|---|
| KSSQSVLYESRNKNSVA | WASTRES | QQYHRTGTS | 5.35 | 2 of 3 |
| KSSQSVLYESRPKNSVA | WASTRES | QQCHRLPWS | not detected | 0 of 3 |
| KSSQSVLYESANKNSVA | WASTVCS | QQYHRLPLS | 1.00 | 3 of 3 |
| KLSQSVLYESRNKNSVA | WASDRES | QQYHRWPLS | not detected | 0 of 3 |
| KSSQSVLPESRNNNSVA | WASTRES | QQYHRLPLS | 1.09 | 3 of 3 |
| KSSQSCLYESRNKNSVA | WASTREA | QQYHRLPCS | 3.51 | 1 of 3 |
| KSSQSRLYESRNKNSVA | WASTRVS | QQCHRLPLS | not detected | 0 of 3 |
| KSSQSVLYEEINKCSVA | WASTRES | QQYHRLPLS | 2.85 | 3 of 3 |
| KSSQSVLYESRNKNHVA | WASTRES | QQYGRLNLS | 1.83 | 3 of 3 |
| KSSQSVLYEFRNKNSVA | WASVRES | QQYHRLPLS | 1.20 | 3 of 3 |
| WSMQSVLYESGNKNSVA | WASTRES | QQYHRLPLS | 3.15 | 3 of 3 |
| KSSMSVLYLSRNKNSVA | WASTRTS | QQYHRLPLS | 2.53 | 3 of 3 |
| KSSQSVLYESRNKNSVS | WASTREF | KQYHRLPLS | not detected | 0 of 3 |
| KSSQSVDYESRNKNSVA | WASTRES | QQYHGLQLS | not detected | 0 of 3 |
| KSDQVVLYESRNKNCVA | WASTRES | QQYHRLPLS | 3.08 | 3 of 3 |
| KVSQSVLKESRNKNSVA | WLSTRES | QQYHRLPLS | 1.07 | 3 of 3 |
| KSSQSVLYESRDKESVA | WASTRES | QQYHRLPLS | 1.80 | 3 of 3 |
| KSSDSVLYESRNKNGVA | WASTRHS | QQYHRLPLS | 3.09 | 3 of 3 |
| KSSQEVLYESRNKASVA | WASTRES | QQYHRLPLR | 3.25 | 3 of 3 |
| KSSQSVLYESRNKNSVA | WGSTRMS | QQYHRFPLS | 1.90 | 3 of 3 |
| KSSQSVLYESDNKNSVA | WAKTRES | QQYHRLPAS | not detected | 0 of 3 |
| KSSDSVLYESRNYNSFA | WASTRES | QQYHRLPLS | not detected | 0 of 3 |
| KSSQSVLQESRNKNSVA | WASTRES | QQYQRLPVS | 2.16 | 3 of 3 |
| KSSQSVLYESWNKNSGA | WASTRES | QQYHRLPNS | not detected | 0 of 3 |
| KSSQSVLYESRNKNSVF | WASTRES | NQYHRLHLS | 4.48 | 3 of 3 |
| KSSQSVLYESRNKNSVA | WASMRWS | QQYHRLCLS | not detected | 0 of 3 |
| KSSQSVLYESRNKNSVA | WASTSIS | QQYWRLPLS | 3.30 | 3 of 3 |
| KSSQSVLYESRNKASVA | PASTRES | QQYHRLCLS | not detected | 0 of 3 |
| KSSQFVLYESRNKDSVA | WYSTRES | QQYHRLPLS | not detected | 0 of 3 |
| KSSQSVLYESRNKNSVA | WASTGSS | QQYHRFPLS | 3.36 | 1 of 3 |
| KSSQSWLYESRNKNSVA | WAETLES | QQYHRLPLS | 1.68 | 3 of 3 |
| KSSQSVLYESRNKNSVA | WAVTRES | QQKHRLPLS | 3.17 | 1 of 3 |
| KSSQSVLYESRNKNSVA | WASTRES | QQYRVRPLS | not detected | 0 of 3 |
| KSSQSVLYESRNKNSVA | WASTRES | QQVGRLPVS | 0.57 | 3 of 3 |
| KSSQSVSYESRNKNSVA | WASTRES | QEYERLPLS | 1.43 | 3 of 3 |
| KSSQSVLYESRNKQSVA | WASTREN | QQYHRNPLS | not detected | 0 of 3 |
| KSSQSVLGESRNKNSDA | WASTRNS | QQYHRLPLS | not detected | 0 of 3 |
| KSSQHVLYESRNKNSVA | WASTQES | NQYHRLPLS | not detected | 0 of 3 |
| KSSQSVKYESRNKNSVD | WASTREP | QQYHRLPLS | 4.49 | 1 of 3 |
| KSSQSQLKEGRNKNSVA | WASTRES | QQYHRLPLS | 1.21 | 3 of 3 |
| KSSPSVLYEYRNKNSVA | WASTRES | QQYHRLPLS | 0.92 | 3 of 3 |
| KSSQSVLYESRNPNSVA | WASTRES | QQYHRSPLE | 1.86 | 3 of 3 |
| KPSQSVLYESRNKNKAA | WASTRES | QQYHRLPLS | 3.86 | 1 of 3 |
| KSSQSVMYESRNHNSVA | WYSTRES | QQYHRLPLS | 3.41 | 1 of 3 |
| KESCSVLYESRNKNSVA | WACTRES | QQYHRLPLS | 4.16 | 2 of 3 |
| KSSQSVDYESRKKNSVA | WASTRES | VQYHRLPLS | 1.65 | 3 of 3 |
| KSSQSVLYESRNKNGVA | WASTRES | QQYHRLPRL | not detected | 0 of 3 |
| KSSQSVLYWSRNKNSVA | WASTRES | CQYHPLPLS | 4.31 | 1 of 3 |
| KSSQSVLYESRQKNSVA | WASTRHS | TQYHRLPLS | 3.57 | 1 of 3 |
| KSSQSVLYESRNKNSVA | FASTREG | QQYHELPLS | 2.93 | 3 of 3 |
| KSKQSVLYESRTKNSVA | WASTYES | QQYHRLPLS | 5.47 | 2 of 3 |
| KSSQSVLYESRNTNSFA | WKSTRES | QQYHRLPLS | 4.41 | 3 of 3 |
| KSSQSVLYESRNKNSVA | WASTPYS | QQYHRLCLS | 3.43 | 1 of 3 |
| KSSQSVQYESRNKNSVA | WAMTRES | QQYHILPLS | 2.85 | 3 of 3 |
| KSGQSVLYMRRNKNSVA | WASTRES | QQYHRLPLS | not detected | 0 of 3 |
| KSSQSVLYESRNKNSRA | WASTRES | QDYHRLPHS | not detected | 0 of 3 |
| KSSRSVLYESRNKNSVA | WASTRES | QQYHRKPLE | 1.38 | 3 of 3 |
| KSSQSVLYESRNKGSTA | WASTRES | QQYHRLPSS | 5.03 | 2 of 3 |
| KHSQSVLYEERNKNSVA | WASTRES | QQYHRYPLS | 0.73 | 3 of 3 |
| KSSQSVLYESRNKNSVA | WASTRES | QQIHQLPLS | 1.77 | 3 of 3 |
| KSSQSVLYESRNKNSKA | WASTRES | VQKHRLPLS | not detected | 0 of 3 |
| KDSQSVLYEHRNKNSVA | WASTRES | QQYPRLPLS | not detected | 0 of 3 |

The first 4 variants above that were never detected:

| CDR-L1 | CDR-L2 | CDR-L3 | log10 Kd (nM), mean | detected |
|---|---|---|---|---|
| KSSQSVLYESRPKNSVA | WASTRES | QQCHRLPWS | not detected | 0 of 3 |
| KLSQSVLYESRNKNSVA | WASDRES | QQYHRWPLS | not detected | 0 of 3 |
| KSSQSRLYESRNKNSVA | WASTRVS | QQCHRLPLS | not detected | 0 of 3 |
| KSSQSVLYESRNKNSVS | WASTREF | KQYHRLPLS | not detected | 0 of 3 |

Empty control strains, which show no peptide, gave a signal in 18% of pairings with library AAYL50; the median was 4.19 and 95% of these signals were weaker than 2.99. No background was subtracted.
For reference, the parent read 0.65 as the reference entry and 1.68 as a member of this library.